According to the supplement of paper PMC7858590:
Shown are results outside the selection of lowest values, which stands elsewhere.

What follows are compounds tested on human monocyte-derived macrophages (M0) (assay: cell shape (eccentricity) Z-score vs DMSO control; higher = more elongated, M2-like morphology). Settings: 20 µM; 24 h; macrophage state: M0 (M-CSF).
Procedure: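 Primary human monocyte-derived macrophages (M-CSF differentiated, pooled from 4 donors, 5000 cells/well in 384-well plates) were treated with each compound at 20 uM for 24 h, then fixed and stained with phalloidin/DAPI and imaged on an Opera Phenix (6 fields, about 1000 cells/well). Cell eccentricity was measured with CellProfiler, and a Z-score (t-test) was computed against 4 DMSO control wells in the same row. Negative values mean round (M1-like) cells and positive values mean elongated (M2-like) cells; the paper's hit cutoffs are Z <= -4 (M1) and Z >= 6 (M2). Scale: negative = round, M1-like.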
In the case of `N=C(NCCc1ccc(I)cc1)SCCCc1c[nH]cn1`, the “cell shape (Z-score)” value is reported as 0.0237.
